Values of other authors as cited in patent US20240342186A1, “PYRIDINE DERIVATIVES WITH N-LINKED CYCLIC SUBSTITUENTS AS cGAS INHIBITORS” (Boehringer Ingelheim International GmbH, priority 2021, published 2024).

System: cGAS/STING pathway
Details: prior art statement; cited from earlier work

Compound: O=C(N[C@H]1CCCC[C@H]1C(=O)O)c1cnn2c(O)cc(-c3ccccc3)nc12
- cellular activity as a cGAS inhibitor: no acceptable cellular activity
